Results on 10 compounds are retold here after PubChem BioAssay AID620 (Sanford-Burnham Center for Chemical Genomics, 2007).

The entries are a selection whose mix differs from that of the whole data set. The source made the active and inactive calls. Rule as the data show it: active = cytotoxicity above about 50%; inactive = the rest.

The nature of the experiment: HT1080 cell viability loss – fluorescence readout (AID 620).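 Also: cells exposed to compound overnight then 4 h with Alamar Blue; 0% = vehicle DMSO and 100% = killing control.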 As to conditions: at 10 µM, stronger effect = higher value.
As for `N/C(=N\O)c1c(N)no[n+]1[O-]`, the cytotoxicity is inactive: 0%.

For `c1ccc(CN2CCC(Nc3ccccc3)CC2)cc1`, the cytotoxicity was inactive: 12.3%.

`Fc1ccccc1NC1CCN(Cc2ccccc2)CC1`: the cytotoxicity was inactive: -1.3%.

Take `CCOc1ncccc1C(=O)NCC1(N2CCOCC2)CCCCC1`: the cytotoxicity was inactive: 4.1%.

For `CCC(CO)(C(=O)OC1CN2CCC1CC2)c1ccccc1` (stereo not given), the cytotoxicity was inactive: -7.5%.

In the case of `O=C(OC1CN2CCC1CC2)C1c2ccccc2Oc2ccccc21` (stereo not given), the cytotoxicity is inactive: -9.7%.

For the compound `O=C(NCC1(N2CCOCC2)CCCCC1)c1cc2ccccc2o1`, the cytotoxicity was inactive: 1.6%.

As for `COc1ccc(NC2CCN(CCc3ccccc3)CC2)c(OC)c1`, the cytotoxicity is inactive: 5%.

As for `N#CC1(Nc2ccccc2)CCN(CCc2ccccc2)CC1`, the cytotoxicity was inactive: 5.9%.

`O=C(NCC1(N2CCOCC2)CCCCC1)c1cc(=O)[nH]c2ccccc12`: the cytotoxicity was inactive: 14.1%.
